# Assay results: patent US8840891 (RSR, dated 2014)
# Read-outs that look alike come from different tables or passages of the source.
# Columns and labels:
# Assay in all cases: cell-based or functional assay
# [1] = target: TSHR with Asp43 mutated to Alanine expressed on CHO cells (human) (UniProt P16473)
# [2] = target: TSHR with Glu107 mutated to Alanine expressed on CHO cells (human) (UniProt P16473)
# [3] = target: wild type human TSHR (thyrotropin receptor) expressed on CHO cells (human) (UniProt P16473)
# [4] = target: TSHR with Glu61 mutated to Alanine expressed on CHO cells (human) (UniProt P16473)
# [5] = target: wild type human TSHR (thyrotropin receptor) expressed on CHO cells (human) (UniProt P16473); remark: listed apart in the source
# [6] = target: TSHR with His105 mutated to Alanine expressed on CHO cells (human) (UniProt P16473)
# [7] = target: wild type human TSHR (thyrotropin receptor) expressed on CHO cells (human) (UniProt P16473); remark: listed apart in the source
# [8] = target: TSHR with Phe130 mutated to Alanine expressed on CHO cells (human) (UniProt P16473)
# [9] = target: wild type human TSHR (thyrotropin receptor) expressed on CHO cells (human) (UniProt P16473); remark: listed apart in the source
# [10] = target: TSHR with Glu178 mutated to Alanine expressed on CHO cells (human) (UniProt P16473)
# [11] = target: wild type human TSHR (thyrotropin receptor) expressed on CHO cells (human) (UniProt P16473); remark: listed apart in the source
# [12] = target: TSHR with Tyr185 mutated to Alanine expressed on CHO cells (human) (UniProt P16473)
# [13] = target: wild type human TSHR (thyrotropin receptor) expressed on CHO cells (human) (UniProt P16473); remark: listed apart in the source
# [14] = target: TSHR with Asp203 mutated to Alanine expressed on CHO cells (human) (UniProt P16473)
# [15] = target: wild type human TSHR (thyrotropin receptor) expressed on CHO cells (human) (UniProt P16473); remark: listed apart in the source
# [16] = target: TSHR with Tyr206 mutated to Alanine expressed on CHO cells (human) (UniProt P16473)
# [17] = target: wild type human TSHR (thyrotropin receptor) expressed on CHO cells (human) (UniProt P16473); remark: listed apart in the source
# [18] = target: TSHR with Lys209 mutated to Alanine expressed on CHO cells (human) (UniProt P16473)
# [19] = target: wild type human TSHR (thyrotropin receptor) expressed on CHO cells (human) (UniProt P16473); remark: listed apart in the source
# [20] = target: TSHR with Asp232 mutated to Alanine expressed on CHO cells (human) (UniProt P16473)
# [21] = target: wild type human TSHR (thyrotropin receptor) expressed on CHO cells (human) (UniProt P16473); remark: listed apart in the source
# [22] = target: TSHR with Lys250 mutated to Alanine expressed on CHO cells (human) (UniProt P16473)
# [23] = target: wild type human TSHR (thyrotropin receptor) expressed on CHO cells (human) (UniProt P16473); remark: listed apart in the source
# [24] = target: TSHR with Glu251 mutated to Alanine expressed on CHO cells (human) (UniProt P16473)
# [25] = target: wild type human TSHR (thyrotropin receptor) expressed on CHO cells (human) (UniProt P16473); remark: listed apart in the source
# [26] = target: TSHR with Thr257 mutated to Alanine expressed on CHO cells (human) (UniProt P16473)
# [27] = target: wild type human TSHR (thyrotropin receptor) expressed on CHO cells (human) (UniProt P16473); remark: listed apart in the source
# [28] = target: TSHR with Arg274 mutated to Alanine expressed on CHO cells (human) (UniProt P16473)
# [29] = target: wild type human TSHR (thyrotropin receptor) expressed on CHO cells (human) (UniProt P16473); remark: listed apart in the source
substance,measurement,setting,value
porcine TSH (pTSH) (from UniProt P01219 25-120; P01224 21-132) (ligand),Cyclic AMP produced; TSH only (fmol/cell well),[1],11700
same,Mutated/wild type (%); TSH only,[1],84%
same,Cyclic AMP produced; Experiment 1; TSH only (fmol/cell well),[2],13400
same,Cyclic AMP produced; Experiment 2; TSH only (fmol/cell well),[2],19400
same,Mutated/wild type (%); Experiment 1; TSH only,[2],91%
same,Mutated/wild type (%); Experiment 2; TSH only,[2],110%
same,Cyclic AMP produced; Experiment 1; TSH only (fmol/cell well),[3],14800
same,Cyclic AMP produced; Experiment 2; TSH only (fmol/cell well),[3],17600
same,Cyclic AMP produced; TSH only (fmol/cell well),[3],13900
same,Cyclic AMP produced; TSH only (fmol/cell well),[4],15400
same,Mutated/wild type (%); TSH only,[4],120%
same,Cyclic AMP produced; TSH only (fmol/cell well),[5],12800
same,Cyclic AMP produced; TSH only (fmol/cell well),[6],18000
same,Mutated/wild type (%); TSH only,[6],126%
same,Cyclic AMP produced; TSH only (fmol/cell well),[7],14200
same,Cyclic AMP produced; TSH only (fmol/cell well),[8],16400
same,Mutated/wild type (%); TSH only,[8],103%
same,Cyclic AMP produced; TSH only (fmol/cell well),[9],15900
same,Cyclic AMP produced; TSH only (fmol/cell well),[10],7670
same,Mutated/wild type (%); TSH only,[10],86%
same,Cyclic AMP produced; TSH only (fmol/cell well),[11],8900
same,Cyclic AMP produced; TSH only (fmol/cell well),[12],8300
same,Mutated/wild type (%); TSH only,[12],66%
same,Cyclic AMP produced; TSH only (fmol/cell well),[13],12600
same,Cyclic AMP produced; TSH only (fmol/cell well),[14],12600
same,Mutated/wild type (%); TSH only,[14],107%
same,Cyclic AMP produced; TSH only (fmol/cell well),[15],11800
same,Cyclic AMP produced; TSH only (fmol/cell well),[16],18400
same,Mutated/wild type (%); TSH only,[16],120%
same,Cyclic AMP produced; TSH only (fmol/cell well),[17],15400
same,Cyclic AMP produced; TSH only (fmol/cell well),[18],9500
same,Mutated/wild type (%); TSH only,[18],67%
same,Cyclic AMP produced; TSH only (fmol/cell well),[19],14200
same,Cyclic AMP produced; TSH only (fmol/cell well),[20],14900
same,Mutated/wild type (%); TSH only,[20],95%
same,Cyclic AMP produced; TSH only (fmol/cell well),[21],15700
same,Cyclic AMP produced; TSH only (fmol/cell well),[22],10900
same,Mutated/wild type (%); TSH only,[22],82%
same,Cyclic AMP produced; TSH only (fmol/cell well),[23],13300
same,Cyclic AMP produced; TSH only (fmol/cell well),[24],17500
same,Mutated/wild type (%); TSH only,[24],95%
same,Cyclic AMP produced; TSH only (fmol/cell well),[25],18400
same,Cyclic AMP produced; TSH only (fmol/cell well),[26],18600
same,Mutated/wild type (%); TSH only,[26],110%
same,Cyclic AMP produced; TSH only (fmol/cell well),[27],16900
same,Cyclic AMP produced; TSH only (fmol/cell well),[28],11400
same,Mutated/wild type (%); TSH only,[28],54%
same,Cyclic AMP produced; TSH only (fmol/cell well),[29],21300
